Target: T1, ferroportin tagged at the C-terminus with green fluorescent protein (Fpn-GFP) (Mus musculus, UniProt Q9JHI9)
T1 construct: expressed in transfected cells; host or cells: ECR293/Fpn-GFP (stably transfected, ponasterone-inducible)
T1 sequence (Q9JHI9 1-570): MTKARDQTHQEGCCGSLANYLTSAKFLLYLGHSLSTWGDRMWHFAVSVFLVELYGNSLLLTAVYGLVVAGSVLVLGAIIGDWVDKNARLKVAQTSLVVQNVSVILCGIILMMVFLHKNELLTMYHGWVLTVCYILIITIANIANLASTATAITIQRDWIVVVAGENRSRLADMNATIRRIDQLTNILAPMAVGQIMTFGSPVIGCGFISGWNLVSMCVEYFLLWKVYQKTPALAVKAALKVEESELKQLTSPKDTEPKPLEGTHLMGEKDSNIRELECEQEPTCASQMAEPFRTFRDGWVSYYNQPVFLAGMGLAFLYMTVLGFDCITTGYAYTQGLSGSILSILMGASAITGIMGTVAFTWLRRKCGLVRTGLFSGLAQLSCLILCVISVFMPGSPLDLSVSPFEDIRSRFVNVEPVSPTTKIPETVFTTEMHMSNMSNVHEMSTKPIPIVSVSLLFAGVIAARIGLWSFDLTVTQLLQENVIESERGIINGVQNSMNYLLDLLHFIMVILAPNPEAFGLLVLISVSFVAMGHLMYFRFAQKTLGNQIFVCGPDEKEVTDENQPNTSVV
Assay: Flow cytometry of ferroportin-GFP degradation in ECR293/Fpn-GFP cells
Format: cell-based
Description: In vitro activity may be measured by the dose-dependent loss of fluorescence of cells engineered to display ferroportin fused to green fluorescent protein as in Nemeth et al. (2006) Blood 107:328-33. Aliquots of cells are incubated for 24 hours with graded concentrations of a reference preparation of Hep25 or a mini-hepcidin. As provided herein, the EC50 values are provided as the concentration of a given compound (e.g. peptide) that elicits 50% of the maximal loss of fluorescence generated by the reference Hep25 preparation.
Mutational studies indicate that C326, the cysteine residue at position 326 of human ferroportin, is the critical residue involved in binding hepcidin. Thus, various N-terminal fragments of Hep25 containing a thiol, i.e. Hep 4-7, Hep3-7, Hep3-8, Hep3-9, Hep1-7, Hep1-8, Hep1-9, and Hep1-10 C7A, were chemically synthesized, refolded and their activities relative to Hep25 were assayed using flow-cytometric quantitation of the ferroportin-GFP degradation, iron efflux estimation based on measurements of cellular ferritin, and radioisotopic iron efflux studies.
The activity of peptides of the present invention was measured by flow cytometry as previously described. See Nemeth et al. (2006) Blood 107:328-333, which is herein incorporated by reference. […] Cells were then trypsinized and resuspended at 1×10^6 cells/ml, and the intensity of green fluorescence was analyzed by flow cytometry. Flow cytometry was performed on FAC SCAN (fluorescence activated cell scanner) Analytic Flow Cytometer (Becton Dickinson, San Jose, Calif.) with […] version 3.3 software (Becton Dickinson). Cells not induced with ponasterone to express Fpn-GFP were used to establish a gate to exclude background fluorescence. […] For each concentration of peptide, the results were expressed as a fraction of the maximal activity (FHep25) of Hep25 (in the dose range 0.01-10 μM), according to the formula 1−((Fx−FHep25)/(Funtreated−FHep25)), where F was the mean of the gated green fluorescence and x was the peptide.

[1] = ferroportin-GFP internalization, FIG. 3

hepcidin activity relative to Hep25 (in words) (FIGS. 1-4): quite active
potency relative to Hep25 on a mass basis, times less potent [1]: about 4 times
potency relative to Hep25 on a molar basis, times less potent [1]: about 10 times
Compound: CC[C@H](C)[C@H](NC(=O)[C@H](CS)NC(=O)[C@@H](NC(=O)[C@@H]1CCCN1C(=O)[C@H](Cc1ccccc1)NC(=O)[C@H](Cc1c[nH]cn1)NC(=O)[C@@H](NC(=O)[C@@H](N)CC(=O)O)[C@@H](C)O)[C@@H](C)CC)C(=O)N[C@@H](Cc1ccccc1)C(N)=O [Hep9]

Reference: patent US9896481B2, “Modified mini-hepcidin peptides and methods of using thereof” (priority 2011, dated 2018)
